Tests used:
Albumin [1] = biological target: Albumin (Oryctolagus cuniculus, UniProt P49065); assay: Binding affinity to rabbit albumin by fluorescence polarization assay
Albumin [2] = biological target: Albumin (Rattus norvegicus, UniProt P02770); assay: Binding affinity to rat albumin by fluorescence polarization assay
Albumin [3] = biological target: Albumin (Homo sapiens, UniProt P02768); assay: Binding affinity to human albumin by fluorescence polarization assay

The chains behind the UniProt entries cited, without tags or fusion partners.
UniProt P49065, whole entry: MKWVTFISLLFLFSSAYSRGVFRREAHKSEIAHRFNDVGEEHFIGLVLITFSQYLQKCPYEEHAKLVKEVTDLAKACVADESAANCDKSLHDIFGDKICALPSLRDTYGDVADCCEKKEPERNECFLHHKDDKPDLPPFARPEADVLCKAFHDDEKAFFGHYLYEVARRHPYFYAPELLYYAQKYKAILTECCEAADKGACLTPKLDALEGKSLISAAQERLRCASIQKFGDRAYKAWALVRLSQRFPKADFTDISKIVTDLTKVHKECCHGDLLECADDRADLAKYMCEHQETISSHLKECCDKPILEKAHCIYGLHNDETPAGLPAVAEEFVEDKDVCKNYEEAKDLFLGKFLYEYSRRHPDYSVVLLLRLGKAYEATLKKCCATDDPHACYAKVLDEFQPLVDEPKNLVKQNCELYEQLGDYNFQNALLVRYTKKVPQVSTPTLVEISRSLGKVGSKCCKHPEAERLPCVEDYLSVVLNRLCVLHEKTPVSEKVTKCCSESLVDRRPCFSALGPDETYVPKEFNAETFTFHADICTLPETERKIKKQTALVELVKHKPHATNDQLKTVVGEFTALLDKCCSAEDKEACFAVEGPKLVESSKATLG
UniProt P02770, whole entry: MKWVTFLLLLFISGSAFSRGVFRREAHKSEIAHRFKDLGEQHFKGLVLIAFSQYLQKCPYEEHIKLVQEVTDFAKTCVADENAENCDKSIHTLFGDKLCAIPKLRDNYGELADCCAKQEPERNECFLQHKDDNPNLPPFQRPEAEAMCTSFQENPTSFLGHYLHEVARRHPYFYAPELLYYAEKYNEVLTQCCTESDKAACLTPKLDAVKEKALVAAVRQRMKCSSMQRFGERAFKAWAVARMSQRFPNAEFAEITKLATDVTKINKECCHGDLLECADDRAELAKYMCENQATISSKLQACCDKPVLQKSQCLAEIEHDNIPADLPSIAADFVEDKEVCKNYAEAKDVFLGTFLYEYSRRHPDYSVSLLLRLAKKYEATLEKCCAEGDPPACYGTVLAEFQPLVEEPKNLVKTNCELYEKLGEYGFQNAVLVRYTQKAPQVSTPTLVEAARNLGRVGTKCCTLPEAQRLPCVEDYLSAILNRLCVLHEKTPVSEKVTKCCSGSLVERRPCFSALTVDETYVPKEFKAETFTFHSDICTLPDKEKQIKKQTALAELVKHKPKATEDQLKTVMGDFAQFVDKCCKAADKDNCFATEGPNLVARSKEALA
UniProt P02768, whole entry: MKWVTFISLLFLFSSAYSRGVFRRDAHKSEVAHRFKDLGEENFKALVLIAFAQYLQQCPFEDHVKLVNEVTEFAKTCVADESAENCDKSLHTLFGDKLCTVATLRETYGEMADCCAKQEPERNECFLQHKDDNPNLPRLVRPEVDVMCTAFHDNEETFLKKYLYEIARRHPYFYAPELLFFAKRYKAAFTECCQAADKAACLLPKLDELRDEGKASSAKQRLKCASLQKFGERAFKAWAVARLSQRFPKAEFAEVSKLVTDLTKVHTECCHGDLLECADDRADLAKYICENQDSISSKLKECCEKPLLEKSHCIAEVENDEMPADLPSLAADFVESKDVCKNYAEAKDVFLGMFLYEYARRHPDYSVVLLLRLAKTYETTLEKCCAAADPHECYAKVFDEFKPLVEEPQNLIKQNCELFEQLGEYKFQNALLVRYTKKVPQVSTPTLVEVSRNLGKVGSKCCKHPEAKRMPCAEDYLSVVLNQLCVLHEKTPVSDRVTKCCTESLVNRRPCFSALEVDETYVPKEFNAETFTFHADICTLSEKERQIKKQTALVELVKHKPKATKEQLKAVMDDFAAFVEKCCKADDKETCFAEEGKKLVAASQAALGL

## CCCCCCCCCCCCCCCC(=O)NCCCC[C@H](NC(=O)[C@H](CCC(=O)O)NC(=O)[C@H](Cc1ccc(O)cc1)NC(=O)[C@H](CCC(=O)O)NC(=O)COCCOCCNC(=O)c1ccc2c(c1)C(=O)OC21c2ccc(O)cc2Oc2cc(O)ccc21)C(=O)N[C@@H](CCC(=O)O)C(=O)N[C@@H](Cc1ccc(O)cc1)C(=O)N[C@@H](CCC(=O)O)C(N)=O
Albumin [1]
  Kd: 320 nM
Albumin [2]
  Kd: 220 nM
Albumin [3]
  Kd: 39 nM

Reference: ChEMBL document CHEMBL5244201, “Non-covalent albumin-binding ligands for extending the circulating half-life of small biotherapeutics” (Medchemcomm, 2019)
